logP (octanol/water) values, as collected for the OPERA models

From the experimental data distributed with OPERA 2.9.

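These are experimental values that the OPERA curators gathered from public databases to train and test their QSAR models. The files give a single number for a compound and property, which may rest on several reports. Method, purity and exact conditions of the single measurements are not given. Where a salt, mixture or single isomer is drawn, the source does not say that exactly this form was tested. Unmarked limits or estimates from the upstream databases cannot be ruled out.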

logP is the log10 of the octanol-water partition coefficient; higher is more lipophilic. Cells with "–" have no entry in this list.

{"smiles": "COc1ccc(/N=N/c2c(S(=O)(=O)[O-])cc3cc(Nc4nc(F)nc(F)c4Cl)ccc3c2O)c(S(=O)(=O)[O-])c1.[Na+].[Na+]", "logP": "-2.1"}
{"smiles": "O=S(=O)([O-])c1cc(S(=O)(=O)[O-])c2ccc3c(S(=O)(=O)[O-])cc(S(=O)(=O)[O-])c4ccc1c2c43.[Na+].[Na+].[Na+].[Na+]", "name": "Tetrasodium 1,3,6,8-pyrenetetrasulfonate", "logP": "-4.5"}
{"smiles": "CC(=O)N[C@@H](Cc1ccc(O)cc1)C(=O)N[C@H](C(N)=O)C(C)C", "name": "L-Valinamide, N-acetyl-L-tyrosyl-", "logP": "-0.2"}
{"smiles": "CC(=O)OCCOC(C)=O", "name": "1,2-Ethanediol diacetate", "logP": "0.24"}
{"smiles": "COc1ccc(/C=C/C(=O)NCCC[N+](C)(C)CC(O)CS(=O)(=O)[O-])cc1", "stereo": "stereo partly drawn", "logP": "-0.982"}
{"smiles": "CCCCC(C=O)CC", "stereo": "centres undefined", "name": "2-Ethylhexaldehyde", "logP": "3.335"}
{"smiles": "O=C([O-])c1ccccc1-c1c2cc(Br)c(=O)c(Br)c-2oc2c(Br)c([O-])c(Br)cc12.O=C([O-])c1ccccc1-c1c2cc(Br)c(=O)c(Br)c-2oc2c(Br)c([O-])c(Br)cc12.O=C([O-])c1ccccc1-c1c2cc(Br)c(=O)c(Br)c-2oc2c(Br)c([O-])c(Br)cc12.[Al+3].[Al+3]", "name": "Pigment Red 90:1", "logP": "4.777"}
{"smiles": "O=S(=O)([O-])CO.[Na+]", "name": "Sodium hydroxymethanesulfonate", "logP": "-4.6"}
{"smiles": "CC(O)CN(CCCN(C)C)CC(C)O", "stereo": "centres undefined", "name": "2-Propanol, 1,1'-[[3-(dimethylamino)propyl]imino]bis-", "logP": "1.24"}
{"smiles": "Cl.N=C(N)c1ccccc1", "name": "Benzenecarboximidamide, monohydrochloride", "logP": "0.65"}
{"smiles": "CCNC(=O)NN", "name": "N-Ethylhydrazinecarboxamide", "logP": "-1.62"}
{"smiles": "CCCCC(CC)COS(=O)(=O)[O-].[NH4+]", "stereo": "centres undefined", "name": "Sulfuric acid, mono(2-ethylhexyl) ester, ammonium salt (1:1)", "logP": "3.7"}
{"smiles": "O=[N+]([O-])c1ccc(C2CSCN2)cc1", "stereo": "centres undefined", "name": "4-(4-Nitrophenyl)-1,3-thiazolidine", "logP": "1.68"}
{"smiles": "CC1c2nc3ccccc3c(=O)n2CN1CCO", "stereo": "centres undefined", "logP": "0.46"}
{"smiles": "CCCCCCCCCCCCCCCCCC(N)=O", "name": "Octadecanamide", "logP": "6.7"}
{"smiles": "CN1CCC(O)CC1", "name": "4-Piperidinol, 1-methyl-", "logP": "0.756"}
{"smiles": "C1=CCC2CC=CC2C1", "stereo": "centres undefined", "name": "3a,4,7,7a-Tetrahydroindene", "logP": "3.83"}
{"smiles": "Cc1nn(-c2ccccc2)c([O-])c1/N=N/c1cc(S(=O)(=O)[O-])cc(S(=O)(=O)[O-])c1[O-].[Cu+2].[Na+].[Na+]", "logP": "-4.75"}
{"smiles": "O=S(=O)([O-])c1ccc2c(/N=N/c3ccc(/N=N/c4ccc(Nc5ccccc5)c(S(=O)(=O)[O-])c4)c4ccccc34)c(O)ccc2c1.[Na+].[Na+]", "logP": "-1.984"}
{"smiles": "O=P(O)(O)C(O)(Cc1cccnc1)P(=O)(O)O", "name": "Risedronic acid", "logP": "-3.6"}
{"smiles": "N=c1c2ncn([C@@H]3O[C@H](CO)C[C@@H]3F)c2ncn1O", "logP": "-1.38"}
{"smiles": "COc1cc(S(=O)(=O)[O-])c(C)cc1NC(=O)C(/N=N/c1ccc(-c2nc3ccc(C)c(S(=O)(=O)[O-])c3s2)cc1)C(C)=O.[Na+].[Na+]", "stereo": "stereo partly drawn", "logP": "-1.925"}
{"smiles": "Cc1nc2n(c(=O)c1CCN1CCC(c3noc4cc(F)ccc34)CC1)CCCC2O", "stereo": "centres undefined", "name": "Paliperidone", "logP": "1.8"}
{"smiles": "Cc1cc(/N=N/c2ccc(O)c(C(=O)[O-])c2)c(OCCCS(=O)(=O)[O-])cc1/N=N/c1ccc([N+](=O)[O-])cc1S(=O)(=O)[O-].[Na+].[Na+].[Na+]", "logP": "-4.4"}
{"smiles": "CC[N+](C)(C)C.[I-]", "name": "Ethanaminium, N,N,N-trimethyl-, iodide (1:1)", "logP": "-3.14"}
{"smiles": "CC(=O)[O-].CN(CCC#N)c1ccc(/C=C/C2=[N+](C)c3ccccc3C2(C)C)cc1", "logP": "1.529"}
{"smiles": "CCCCCCCCCCCOC(=O)CCC", "name": "Undecyl butyrate", "logP": "6.11"}
{"smiles": "CCCCc1ccc2[n-]nnc2c1.[Na+]", "name": "Sodium 5-butylbenzotriazol-1-ide", "logP": "0.65"}
{"smiles": "O=S(=O)([O-])CC(O)CNC1CCCCC1.[Na+]", "stereo": "centres undefined", "name": "Sodium 3-(cyclohexylamino)-2-hydroxypropane-1-sulfonate", "logP": "-3.8"}
{"smiles": "Nc1c(S(=O)(=O)[O-])cc(NC2CCCCC2)c2c1C(=O)c1ccccc1C2=O.[Na+]", "name": "C.I. Acid Blue 62", "logP": "0.425"}
{"smiles": "C=CS(=O)(=O)[O-].[Na+]", "name": "Sodium ethenesulfonate", "logP": "-1.01"}
{"smiles": "N[C@@H](Cc1cc(Cl)c(O)c(Cl)c1)C(=O)O", "name": "3,5-Dichloro-L-tyrosine", "logP": "-0.28"}
{"smiles": "Cc1cnc(/C(O)=N/CCc2ccc(S(N)(=O)=O)cc2)cn1.[HH].[Na+]", "logP": "0.5"}
{"smiles": "Cn1c(=O)c2c(ncn2CC(O)CO)n(C)c1=O", "stereo": "centres undefined", "name": "Dyphylline", "logP": "-1.9"}
{"smiles": "CCCCCCCC[N+](C)(C)C.[I-]", "name": "N,N,N-Trimethyloctan-1-aminium iodide", "logP": "-1.07"}
{"smiles": "O=CCC=O", "name": "Malonaldehyde", "logP": "-1.16"}
{"smiles": "CC1=NC(=CN=O)SN1", "logP": "1.29"}

Excerpt, the final 4 entries:

structure (SMILES)	name	logP
Cn1c(=O)c2c(ncn2CC(O)CO)n(C)c1=O (centres undefined)	Dyphylline	-1.9
CCCCCCCC[N+](C)(C)C.[I-]	N,N,N-Trimethyloctan-1-aminium iodide	-1.07
O=CCC=O	Malonaldehyde	-1.16
CC1=NC(=CN=O)SN1	–	1.29